Tests used:
Conditions in all cases: 72 h
[1] = tested on: Caco-2; assay: cell viability relative to DMSO; higher = less toxic
[2] = tested on: Calu-3; assay: as above
[3] = tested on: HepG2; assay: as above
[4] = tested on: U2OS; assay: as above
[5] = tested on: Vero E6; assay: as above
[6] = tested on: Caco-2; assay: relative viability EC50 (midpoint between 100% and the lowest measured viability); higher = less toxic
[7] = tested on: Calu-3; assay: as above
[8] = tested on: HepG2; assay: as above
[9] = tested on: U2OS; assay: as above
[10] = tested on: Vero E6; assay: as above
[11] = tested on: Caco-2; assay: drug sensitivity score (DSS) for viability; higher = more toxic; extreme values may be limits of the assay
[12] = tested on: Calu-3; assay: as above
[13] = tested on: HepG2; assay: as above
[14] = tested on: U2OS; assay: as above
[15] = tested on: Vero E6; assay: as above

CC[C@H](C)[C@H](NC(=O)[C@H](CCC(=O)O)NC(=O)[C@H](CCC(=O)O)NC(=O)[C@H](Cc1ccccc1)NC(=O)[C@H](CC(=O)O)NC(=O)CNC(=O)[C@H](CC(N)=O)NC(=O)CNC(=O)CNC(=O)CNC(=O)CNC(=O)[C@@H]1CCCN1C(=O)[C@H](CCCNC(=N)N)NC(=O)[C@@H]1CCCN1C(=O)[C@H](N)Cc1ccccc1)C(=O)N1CCC[C@H]1C(=O)N[C@@H](CCC(=O)O)C(=O)N[C@@H](CCC(=O)O)C(=O)N[C@@H](Cc1ccc(O)cc1)C(=O)N[C@@H](CC(C)C)C(=O)O [bivalirudin]
cell viability [%]
Conditions	[1]	[2]	[3]	[4]	[5]
1 nM	93.9	98.9	104	97.7	97.9
10 nM	108	92.2	95.2	103	93.6
100 nM	106	103	97.5	96.4	100
1000 nM	102	97.2	97.3	98.5	92.7
10000 nM	97.6	97.3	92.2	93.2	101

Conditions	drug sensitivity score	relative viability EC50 [µM]
[6]	–	> 10
[7]	–	> 10
[8]	–	> 10
[9]	–	> 10
[10]	–	> 10
[11]	0	–
[12]	0	–
[13]	0	–
[14]	0	–
[15]	0	–

Source: the supplement of paper PMC13380429
